{"source": "ChEMBL document CHEMBL3886721", "about": "“Thienopyrimidine compounds and use thereof” (2016)", "target": "T1, Gonadotropin-releasing hormone receptor (Macaca fascicularis, UniProt G7P5Q7)", "T1 sequence (G7P5Q7 whole entry)": "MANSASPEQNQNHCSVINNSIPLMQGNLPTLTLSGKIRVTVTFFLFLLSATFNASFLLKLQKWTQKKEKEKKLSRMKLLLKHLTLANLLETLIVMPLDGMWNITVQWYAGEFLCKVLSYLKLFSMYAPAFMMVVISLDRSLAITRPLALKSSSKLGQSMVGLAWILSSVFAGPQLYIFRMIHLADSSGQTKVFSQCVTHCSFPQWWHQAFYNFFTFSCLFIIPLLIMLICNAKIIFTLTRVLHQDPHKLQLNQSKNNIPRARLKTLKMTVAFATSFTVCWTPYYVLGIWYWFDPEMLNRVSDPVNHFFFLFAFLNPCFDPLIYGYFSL", "test": "125I-Leuprorelin Binding Assay: The monkey and human membrane fractions prepared were diluted with the assay buffer to yield a 200 µg/ml dilution, each of which was then dispensed at 188 μl per tube. To a tube containing the cell membrane fraction of the CHO with monkey GnRH receptors expressed were added 2 μl of a solution of 20 mM compound in 60% DMSO and 10 μl of 38 nM 125I-leuprorelin. To a tube containing the cell membrane fraction of the CHO with human GnRH receptors expressed were added 2 μl of a solution of 2 mM compound in 60% DMSO and 10 μl of 38 nM 125I-leuprorelin. To determine maximum binding quantity, a reaction mixture containing 2 μl of 60% DMSO and 10 μl of 38 nM 125I-leuprorelin was prepared. To determine non-specific binding amount, a reaction mixture containing 2 μl of a solution of 100 μM leuprorelin in 60% DMSO and 10 μl of 38 nM 125I-leuprorelin was prepared.", "data": [{"smiles": "COCCN(C)Cc1c(-c2ccc(NC(=O)NOC)cc2)sc2c1c(=O)n(-c1ccccn1)c(=O)n2Cc1c(F)cccc1F", "values": [{"measurement": "IC50", "value": 9, "unit": "nM"}]}]}
